Measured values as given in PubChem BioAssay (NCI).
Values joined by “and” are separate entries in the source; they are usually repeats but may differ in a detail not shown here. Equal values may be shown once. Only a part is listed here, and it is no random draw.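 How to read the values: 0–100, growth inhibition (40 = 60% inhibited); 0, no net growth; -100 to 0, cell death (-40 = 40% of starting cells died; -100 = all dead).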 Active and inactive are the calls of the source. How the source made its calls: active means growth percent below 10; inactive means the rest.

Each compound was assayed on NCI/ADR-RES ovarian (assay: NCI-60 one-dose screen, 48 h (100 = growth as untreated, 0 = no growth, -100 = all killed)). Conditions: 10 µM unless noted.

| Compound | growth |
| --- | --- |
| CC1CCNP(=O)(N(CCCl)CCCl)O1 (stereo unspecified) | inactive: 109% |
| CCN(CCCl)CC1OC(O)C(O)C1O (stereo unspecified) | inactive: 111% |
| CN(CCCl)/N=N/c1nc2nc[nH]c(=O)c2[nH]1 | inactive: 105% |
| Nc1ccc(N(CCCl)CCCl)cc1 | inactive: 62.6% |
| c1cc(-c2nn[nH]n2)ccc1-c1nn[nH]n1 | inactive: 102% |
| CCCC1OP(N)(=O)OCC1CC (stereo unspecified) | inactive: 115% and inactive: 103% |
| CCOP(=S)(OCC)OCC | inactive: 106% |
| CCOP(=S)(OCC)SCCCl | inactive: 105% |
| CN(C)P1(Cl)=NP(Cl)(N(C)C)=NP(Cl)(N(C)C)=N1 (stereo unspecified) | inactive: 111% |
| Nc1ccc(CCCCOc2ccccc2)cc1 | inactive: 94.6% |
| O=[N+]([O-])c1cccc(Oc2ccc([N+](=O)[O-])cc2[N+](=O)[O-])c1 | inactive: 17.2% |
| CCN(CC)[P+](c1ccc(OC)cc1OC)(N(CC)CC)N(CC)CC | inactive: 98.8% |
| O=C(Nc1ccc([N+](=O)[O-])cc1)N(CCBr)CCBr | inactive: 101% |
| O=P1(N(CCCl)CCCl)Nc2ccccc2N1 | inactive: 122% |
| ClCCNCc1ccccc1 | inactive: 108% |
| O=C(O)/C=C\c1cccc(N(CCCl)CCCl)c1 | inactive: 109% |
| O=C(O[C@H]1CN2CCC1CC2)C1NCc2ccccc2[C@@H]1c1ccccc1 (stereo partly specified) | inactive: 96.5% |
| CC(=O)Nc1ccc([As](=O)(O)O)c(O)c1 | inactive: 109% |
| ClCCN1CCNCC1 | inactive: 106% |

| Compound | growth |
| --- | --- |
| Cc1cc([N+](=O)[O-])cc([N+](=O)[O-])c1O | inactive: 105% |
| O=C(OC1CN2CCC1CC2)c1ccccc1 (stereo unspecified) | inactive: 103% |
| O=C(c1ccc([N+](=O)[O-])cc1)N(CCCl)CCCl | inactive: 105% |
| CCCCCCCCCCNP(=S)(Cl)Cl | inactive: 104% |
| COc1cc([N+](=O)[O-])c(Nc2ccc(Cl)cc2[N+](=O)[O-])c([N+](=O)[O-])c1 | inactive: 55.9% |
| O=[As]c1ccc(S(=O)(=O)Nc2ccccc2)cc1 (stereo unspecified) | inactive: 94.2% |
| Cc1ccc(S(=O)(=O)CN(CCCl)CCCl)cc1 | inactive: 110% |
| CCCN(CCCl)C1c2ccccc2-c2ccccc21 | inactive: 98.6% |
| CC(Cl)CN(CC(C)Cl)C(=O)c1ccccc1 (stereo unspecified) | inactive: 97.9% |
| CC(Cl)CN(CC(C)Cl)C(=O)OCC(N)C(=O)O (stereo unspecified) | inactive: 105% and inactive: 39.5% |
| C[As](=O)(O)c1cccc(C(=O)O)c1 | inactive: 104% |
| Cc1ccc(S(=O)(=O)N(CCCN)CCCc2c(C)nc(N)[nH]c2=O)cc1 | inactive: 106% |
| Cn1c(COc2ccc([N+](=O)[O-])cc2[N+](=O)[O-])cnc1[N+](=O)[O-] | inactive: 95.1% |
| O=[N+]([O-])c1ccc(CCCCCCc2ccc([N+](=O)[O-])cc2[N+](=O)[O-])c([N+](=O)[O-])c1 | inactive: 97% |
| CCSC(O)C(Cl)(Cl)Cl (stereo unspecified) | inactive: 110% |
| O=[N+]([O-])c1cc(Cl)cc([N+](=O)[O-])c1O | inactive: 108% |
| OP1OCCO1 | inactive: 105% |
| N#CC(C#N)=C(C#N)N(CCCl)CCCl | inactive: 103% |
| CC[C@H](C)[C@@H]1NC(=O)/C(=C(\C)O)C1=O | inactive: 105% |

Each compound was assayed on T-47D breast in the same assay as above. Conditions: 10 µM unless noted.

| Compound | growth |
| --- | --- |
| CC1CCNP(=O)(N(CCCl)CCCl)O1 (stereo unspecified) | inactive: 102% |
| CCN(CCCl)CC1OC(O)C(O)C1O (stereo unspecified) | inactive: 101% |
| CN(CCCl)/N=N/c1nc2nc[nH]c(=O)c2[nH]1 | inactive: 84.2% |
| Nc1ccc(N(CCCl)CCCl)cc1 | inactive: 59.6% |
| c1cc(-c2nn[nH]n2)ccc1-c1nn[nH]n1 | inactive: 99.2% |
| CCCC1OP(N)(=O)OCC1CC (stereo unspecified) | inactive: 106% and inactive: 97.1% |
| CCOP(=S)(OCC)OCC | inactive: 103% |
| CCOP(=S)(OCC)SCCCl | inactive: 98.2% |
| CN(C)P1(Cl)=NP(Cl)(N(C)C)=NP(Cl)(N(C)C)=N1 (stereo unspecified) | inactive: 83.4% |
| Nc1ccc(CCCCOc2ccccc2)cc1 | inactive: 75.3% |
| O=[N+]([O-])c1cccc(Oc2ccc([N+](=O)[O-])cc2[N+](=O)[O-])c1 | inactive: 38.7% |
| CCN(CC)[P+](c1ccc(OC)cc1OC)(N(CC)CC)N(CC)CC | inactive: 15.6% |
| O=C(Nc1ccc([N+](=O)[O-])cc1)N(CCBr)CCBr | inactive: 101% |
| O=P1(N(CCCl)CCCl)Nc2ccccc2N1 | inactive: 109% |
| ClCCNCc1ccccc1 | inactive: 105% |
| O=C(O)/C=C\c1cccc(N(CCCl)CCCl)c1 | inactive: 99.3% |
| O=C(O[C@H]1CN2CCC1CC2)C1NCc2ccccc2[C@@H]1c1ccccc1 (stereo partly specified) | inactive: 92.5% |
| CC(=O)Nc1ccc([As](=O)(O)O)c(O)c1 | inactive: 94.9% |
| ClCCN1CCNCC1 | inactive: 105% |

| Compound | growth |
| --- | --- |
| Cc1cc([N+](=O)[O-])cc([N+](=O)[O-])c1O | inactive: 98.7% |
| O=C(OC1CN2CCC1CC2)c1ccccc1 (stereo unspecified) | inactive: 102% |
| O=C(c1ccc([N+](=O)[O-])cc1)N(CCCl)CCCl | inactive: 104% |
| CCCCCCCCCCNP(=S)(Cl)Cl | inactive: 101% |
| COc1cc([N+](=O)[O-])c(Nc2ccc(Cl)cc2[N+](=O)[O-])c([N+](=O)[O-])c1 | inactive: 50.4% |
| O=[As]c1ccc(S(=O)(=O)Nc2ccccc2)cc1 (stereo unspecified) | active: -19.7% |
| Cc1ccc(S(=O)(=O)CN(CCCl)CCCl)cc1 | inactive: 95% |
| CCCN(CCCl)C1c2ccccc2-c2ccccc21 | inactive: 77% |
| CC(Cl)CN(CC(C)Cl)C(=O)c1ccccc1 (stereo unspecified) | inactive: 100% |
| CC(Cl)CN(CC(C)Cl)C(=O)OCC(N)C(=O)O (stereo unspecified) | inactive: 97.6% and inactive: 109% |
| C[As](=O)(O)c1cccc(C(=O)O)c1 | inactive: 97.7% |
| Cc1ccc(S(=O)(=O)N(CCCN)CCCc2c(C)nc(N)[nH]c2=O)cc1 | inactive: 107% |
| Cn1c(COc2ccc([N+](=O)[O-])cc2[N+](=O)[O-])cnc1[N+](=O)[O-] | inactive: 92.7% |
| O=[N+]([O-])c1ccc(CCCCCCc2ccc([N+](=O)[O-])cc2[N+](=O)[O-])c([N+](=O)[O-])c1 | inactive: 65.5% |
| CCSC(O)C(Cl)(Cl)Cl (stereo unspecified) | inactive: 104% |
| O=[N+]([O-])c1cc(Cl)cc([N+](=O)[O-])c1O | inactive: 81.5% |
| OP1OCCO1 | inactive: 102% |
| N#CC(C#N)=C(C#N)N(CCCl)CCCl | inactive: 96.7% |
| CC[C@H](C)[C@@H]1NC(=O)/C(=C(\C)O)C1=O | inactive: 103% |
